Molecular target: T1, Relaxin receptor 1 (Homo sapiens) (UniProt Q9HBX9)
T1 sequence (whole entry): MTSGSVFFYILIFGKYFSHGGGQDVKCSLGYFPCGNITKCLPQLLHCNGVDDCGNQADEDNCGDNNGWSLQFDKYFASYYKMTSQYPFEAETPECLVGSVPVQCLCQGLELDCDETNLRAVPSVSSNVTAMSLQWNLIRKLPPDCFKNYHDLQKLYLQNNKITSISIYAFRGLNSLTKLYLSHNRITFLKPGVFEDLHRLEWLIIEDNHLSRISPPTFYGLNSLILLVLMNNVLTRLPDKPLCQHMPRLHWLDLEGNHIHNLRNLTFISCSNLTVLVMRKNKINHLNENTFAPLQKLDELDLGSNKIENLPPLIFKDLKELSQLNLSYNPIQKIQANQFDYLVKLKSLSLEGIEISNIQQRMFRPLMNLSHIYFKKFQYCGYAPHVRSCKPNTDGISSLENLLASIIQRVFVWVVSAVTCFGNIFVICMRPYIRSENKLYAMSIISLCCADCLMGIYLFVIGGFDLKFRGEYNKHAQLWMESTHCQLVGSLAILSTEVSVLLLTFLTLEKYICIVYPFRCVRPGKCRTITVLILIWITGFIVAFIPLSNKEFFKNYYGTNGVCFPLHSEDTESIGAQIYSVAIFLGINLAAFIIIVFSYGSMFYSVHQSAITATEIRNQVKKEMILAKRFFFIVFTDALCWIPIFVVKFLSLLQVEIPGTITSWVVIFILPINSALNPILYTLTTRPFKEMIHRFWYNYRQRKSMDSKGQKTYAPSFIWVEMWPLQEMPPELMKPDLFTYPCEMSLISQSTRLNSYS
Test: Agonist activity at RXFP1 receptor (unknown origin) expressed in HEK293 cells assessed as stimulation of cAMP production incubated for 30 mins by TR-FRET based HTRF assay relative to forskolin
Format: functional, cell-based

CC(C)Oc1ccccc1C(=O)Nc1ccccc1C(=O)Nc1cccc(S(=O)(=O)C(F)(F)F)c1
%max: 98%

CCOc1ccccc1-c1nc2ccccc2c2nc3ccc(C(F)(F)F)cc3n12
%max: 34%
